Assay results as given in patent US12099068B2, “Biomarkers for graft-versus-host disease” (Incyte Corporation, priority 2018, dated 2024).

System: plasma proteins
Assay: OLINK plasma protein change between baseline (day 1) and day 28 in complete responders, Example 2
Type: in vivo, human
Settings: + corticosteroids
Text: Plasma samples were collected from individuals enrolled in the clinical study of Example 1 at baseline and at day 28.
Table 5 identifies proteins that changed in complete responders between day 1 (baseline) to day 28. Fold change in this example represents the change of a protein level between day 1 (baseline) versus day 28. A paired t test was used to compare the relative change between level of a protein between day 1 and day 28. Table 5 identifies biomarkers of therapeutic response.
Therefore, these proteins are designated as baseline predictive biomarkers.

N#CCC1(n2cc(-c3ncnc4[nH]ccc34)cn2)CN(C2CCN(C(=O)c3ccnc(C(F)(F)F)c3F)CC2)C1 [itacitinib, {1-{1-[3-Fluoro-2-(trifluoromethyl)isonicotinoyl]piperidin-4-yl}-3-[4-(7H-pyrrolo[2,3-d]pyrimidin-4-yl)-1H-pyrazol-1-yl]azetidin-3-yl}acetonitrile]
Fold Change HSD11B1 between Day 1 and Day 28 (not significant): 1.0468
Fold Change TIMP4 between Day 1 and Day 28 (not significant): −1.1371
Fold Change DSC2 from Baseline to Day 28 (significantly modulated): −1.4423
